From patent US6664280B2, “Antivesicant compounds and methods of making and using thereof” (dated 2003)

Columns and labels:
HD-exposed mouse ear [1] = experiment: Mouse Ear Antivesicant Drug Screening Assay: histopathologic severity scores (SEB, EN, CEN); details: topical
HD-exposed mouse ear [2] = experiment: Mouse Ear Antivesicant Drug Screening Assay: edema, relative ear weight (REW); details: for antivesicant activity (relative ear weight reduction) / protective efficacy (relative ear weight reduction): dose not given; for protective efficacy (relative ear weight reduction): applied 20 minutes after the HD exposure; for % REW reduction: topical, mouse ear
[3] = total dose 0.15 mg, applied +10 minute (after HD exposure)
[4] = total dose 0.15 mg, applied −15 minute (before HD exposure)
[5] = total dose 0.3 mg, applied +10 minute (after HD exposure)
[6] = total dose 0.3 mg, applied −15 minute (before HD exposure)
[7] = total dose 0.6 mg, applied +10 minute (after HD exposure)
[8] = total dose 0.6 mg, applied +20 minute (after HD exposure)
[9] = total dose 0.6 mg, applied −15 minute (before HD exposure)
[10] = total dose 1.2 mg, applied +10 minute (after HD exposure)
[11] = total dose 1.2 mg, applied −15 minute (before HD exposure)
[12] = total dose 2.4 mg, applied +10 minute (after HD exposure)
[13] = total dose 2.4 mg, applied −15 minute (before HD exposure)
[14] = total dose 0.6 mg, applied +60 minute (after HD exposure)

Cc1cc[n+]([O-])c(S)c1
% CEN reduction (HD-exposed mouse ear [1]; [3]): 60.00%
% EN reduction (HD-exposed mouse ear [1]; [3]): 2.56%
% SEB reduction (HD-exposed mouse ear [1]; [3]): 57.14%
% CEN reduction (HD-exposed mouse ear [1]; [4]): 71.88%
% EN reduction (HD-exposed mouse ear [1]; [4]): 10.81%
% SEB reduction (HD-exposed mouse ear [1]; [4]): 0.00%
% CEN reduction (HD-exposed mouse ear [1]; [5]): 68.57%
% EN reduction (HD-exposed mouse ear [1]; [5]): 10.26%
% SEB reduction (HD-exposed mouse ear [1]; [5]): 57.14%
% CEN reduction (HD-exposed mouse ear [1]; [6]): 68.75%
% EN reduction (HD-exposed mouse ear [1]; [6]): 13.51%
% SEB reduction (HD-exposed mouse ear [1]; [6]): 60.00%
% CEN reduction (HD-exposed mouse ear [1]; [7]): 65.81% and 85.19% and 65.71%
% CEN reduction (HD-exposed mouse ear [1]; [8]): 28.21%
% EN reduction (HD-exposed mouse ear [1]; [8]): 2.50%
% SEB reduction (HD-exposed mouse ear [1]; [8]): 50.00%
% CEN reduction (HD-exposed mouse ear [1]; [9]): 93.75% and 71.88%
% CEN reduction (HD-exposed mouse ear [1]; [10]): 71.43%
% EN reduction (HD-exposed mouse ear [1]; [10]): 7.69%
% SEB reduction (HD-exposed mouse ear [1]; [10]): 71.43%
% CEN reduction (HD-exposed mouse ear [1]; [11]): 75.00%
% EN reduction (HD-exposed mouse ear [1]; [11]): 27.03%
% SEB reduction (HD-exposed mouse ear [1]; [11]): 60.00%
% CEN reduction (HD-exposed mouse ear [1]; [12]): 68.57%
% EN reduction (HD-exposed mouse ear [1]; [12]): 20.51%
% SEB reduction (HD-exposed mouse ear [1]; [12]): 85.71%
% CEN reduction (HD-exposed mouse ear [1]; [13]): 84.38%
% EN reduction (HD-exposed mouse ear [1]; [13]): 48.65%
% SEB reduction (HD-exposed mouse ear [1]; [13]): 80.00%
antivesicant activity (relative ear weight reduction) (HD-exposed mouse ear [2]; 10 minutes post-exposure): about 68%
antivesicant activity (relative ear weight reduction) (HD-exposed mouse ear [2]; 15 minutes pre-exposure): about 57%
protective efficacy (relative ear weight reduction) (HD-exposed mouse ear [2]): about 11%
% REW reduction (HD-exposed mouse ear [2]; [3]): 34.01%
% REW reduction (HD-exposed mouse ear [2]; [4]): 25.37%
% REW reduction (HD-exposed mouse ear [2]; [5]): 41.93%
% REW reduction (HD-exposed mouse ear [2]; [6]): 38.95%
% REW reduction (HD-exposed mouse ear [2]; [8]): 10.64%
% REW reduction (HD-exposed mouse ear [2]; [9]): 57.05% and 57.20%
% REW reduction (HD-exposed mouse ear [2]; [10]): 30.99%
% REW reduction (HD-exposed mouse ear [2]; [11]): 48.70%
% REW reduction (HD-exposed mouse ear [2]; [12]): 30.40%
% REW reduction (HD-exposed mouse ear [2]; [13]): 69.11%

[O-][n+]1cc(Br)ccc1S
% REW reduction (HD-exposed mouse ear [2]; [9]): 15.61%

Cc1cc(C)[n+]([O-])c(S)c1
% REW reduction (HD-exposed mouse ear [2]; [9]): 36.85%

[O-][n+]1cc(Cl)ccc1S
% REW reduction (HD-exposed mouse ear [2]; [9]): 5.32%

Cc1cccc(S)[n+]1[O-]
% CEN reduction (HD-exposed mouse ear [1]; [3]): 17.86%
% EN reduction (HD-exposed mouse ear [1]; [3]): −8.57%
% SEB reduction (HD-exposed mouse ear [1]; [3]): 0.00%
% CEN reduction (HD-exposed mouse ear [1]; [4]): 41.18%
% EN reduction (HD-exposed mouse ear [1]; [4]): 7.89%
% SEB reduction (HD-exposed mouse ear [1]; [4]): −25.00%
% CEN reduction (HD-exposed mouse ear [1]; [5]): 32.14%
% EN reduction (HD-exposed mouse ear [1]; [5]): −5.71%
% SEB reduction (HD-exposed mouse ear [1]; [5]): 0.00%
% CEN reduction (HD-exposed mouse ear [1]; [6]): 52.94%
% EN reduction (HD-exposed mouse ear [1]; [6]): 5.26%
% SEB reduction (HD-exposed mouse ear [1]; [6]): −25.00%
% SEB reduction (HD-exposed mouse ear [1]; [7]): 50.00% and 61.43%
% CEN reduction (HD-exposed mouse ear [1]; [8]): 31.60%
% EN reduction (HD-exposed mouse ear [1]; [8]): 3.33%
% SEB reduction (HD-exposed mouse ear [1]; [8]): 87.14%
% CEN reduction (HD-exposed mouse ear [1]; [14]): 17.20%
% EN reduction (HD-exposed mouse ear [1]; [14]): 3.33%
% SEB reduction (HD-exposed mouse ear [1]; [14]): 74.29%
% CEN reduction (HD-exposed mouse ear [1]; [9]): 56.25% and 35.29%
% CEN reduction (HD-exposed mouse ear [1]; [10]): 17.86%
% EN reduction (HD-exposed mouse ear [1]; [10]): 2.86%
% SEB reduction (HD-exposed mouse ear [1]; [10]): 0.00%
% CEN reduction (HD-exposed mouse ear [1]; [11]): 67.65%
% EN reduction (HD-exposed mouse ear [1]; [11]): 0.00%
% SEB reduction (HD-exposed mouse ear [1]; [11]): 50.00%
% CEN reduction (HD-exposed mouse ear [1]; [12]): 57.14%
% EN reduction (HD-exposed mouse ear [1]; [12]): −5.71%
% SEB reduction (HD-exposed mouse ear [1]; [12]): 25.00%
% CEN reduction (HD-exposed mouse ear [1]; [13]): 64.71%
% EN reduction (HD-exposed mouse ear [1]; [13]): 23.68%
% SEB reduction (HD-exposed mouse ear [1]; [13]): 75.00%
antivesicant activity (relative ear weight reduction) (HD-exposed mouse ear [2]; 10 minutes post-exposure): about 36%
antivesicant activity (relative ear weight reduction) (HD-exposed mouse ear [2]; 15 minutes pre-exposure): about 42%
protective activity (HD-exposed mouse ear [2]; 60 minutes after HD exposure): significant protective activity
protective efficacy (relative ear weight reduction) (HD-exposed mouse ear [2]): about 25%
% REW reduction (HD-exposed mouse ear [2]; [3]): 0.97%
% REW reduction (HD-exposed mouse ear [2]; [4]): 19.81%
% REW reduction (HD-exposed mouse ear [2]; [5]): 10.95%
% REW reduction (HD-exposed mouse ear [2]; [6]): 21.62%
% REW reduction (HD-exposed mouse ear [2]; [7]): 27.61% and 35.74% and 19.47%
% REW reduction (HD-exposed mouse ear [2]; [8]): 25.19%
% REW reduction (HD-exposed mouse ear [2]; [14]): 22.17%
% REW reduction (HD-exposed mouse ear [2]; [10]): 19.98%
% REW reduction (HD-exposed mouse ear [2]; [11]): 47.80%
% REW reduction (HD-exposed mouse ear [2]; [12]): 10.39%
% REW reduction (HD-exposed mouse ear [2]; [13]): 40.13%

[O-][n+]1ccccc1S
% CEN reduction (HD-exposed mouse ear [1]; [3]): 46.67%
% EN reduction (HD-exposed mouse ear [1]; [3]): 2.78%
% SEB reduction (HD-exposed mouse ear [1]; [3]): 25.00%
% CEN reduction (HD-exposed mouse ear [1]; [4]): 44.12%
% EN reduction (HD-exposed mouse ear [1]; [4]): 10.53%
% SEB reduction (HD-exposed mouse ear [1]; [4]): 75.00%
% CEN reduction (HD-exposed mouse ear [1]; [5]): 53.33%
% EN reduction (HD-exposed mouse ear [1]; [5]): −8.33%
% SEB reduction (HD-exposed mouse ear [1]; [5]): 100.00%
% CEN reduction (HD-exposed mouse ear [1]; [6]): 55.88%
% EN reduction (HD-exposed mouse ear [1]; [6]): 31.58%
% SEB reduction (HD-exposed mouse ear [1]; [6]): 75.00%
% CEN reduction (HD-exposed mouse ear [1]; [8]): 48.57%
% EN reduction (HD-exposed mouse ear [1]; [8]): 7.69%
% SEB reduction (HD-exposed mouse ear [1]; [8]): 77.78%
% CEN reduction (HD-exposed mouse ear [1]; [9]): 50.00% and 65.63%
% SEB reduction (HD-exposed mouse ear [1]; [9]): 50.00%
% CEN reduction (HD-exposed mouse ear [1]; [10]): 50.00%
% EN reduction (HD-exposed mouse ear [1]; [10]): 2.78%
% SEB reduction (HD-exposed mouse ear [1]; [10]): 50.00%
% CEN reduction (HD-exposed mouse ear [1]; [11]): 91.18%
% EN reduction (HD-exposed mouse ear [1]; [11]): 31.58%
% SEB reduction (HD-exposed mouse ear [1]; [11]): 75.00%
% CEN reduction (HD-exposed mouse ear [1]; [12]): 53.33%
% EN reduction (HD-exposed mouse ear [1]; [12]): −5.56%
% SEB reduction (HD-exposed mouse ear [1]; [12]): 0.00%
% CEN reduction (HD-exposed mouse ear [1]; [13]): 94.12%
% EN reduction (HD-exposed mouse ear [1]; [13]): 68.42%
% SEB reduction (HD-exposed mouse ear [1]; [13]): 100%
antivesicant activity compared with analogs (HD-exposed mouse ear [2]; ten minutes post-exposure assay): as active as the 6-methyl-analog, but less active than the 4-methyl-analog
% REW reduction (HD-exposed mouse ear [2]; [3]): 7.02%
% REW reduction (HD-exposed mouse ear [2]; [4]): 27.24%
% REW reduction (HD-exposed mouse ear [2]; [5]): 3.29%
% REW reduction (HD-exposed mouse ear [2]; [6]): 38.20%
% REW reduction (HD-exposed mouse ear [2]; [8]): 16.37%
% REW reduction (HD-exposed mouse ear [2]; [9]): 41.65% and 35.96%
% REW reduction (HD-exposed mouse ear [2]; [10]): 26.24%
% REW reduction (HD-exposed mouse ear [2]; [11]): 47.68%
% REW reduction (HD-exposed mouse ear [2]; [12]): 24.71%
% REW reduction (HD-exposed mouse ear [2]; [13]): 69.42%

[O-][n+]1cccc(Cl)c1S
% REW reduction (HD-exposed mouse ear [2]; [9]): 18.31%

Several values for one entry are separate records, joined by “and”; a condition that tells them apart may be missing. Equal values may be shown once.
